Assays:
[1] = system: cellular pERK in NCI-H441 (KRAS-G12V) cell-line; experiment: Cell based pERK assay (HTRF), NCI-H441; conditions: read-out: H441 pERK EC50; NCI-H441 (KRAS-G12V) cells, 2 hours incubation; tested form: TFA
[2] = system: cellular pERK in ASPC-1 (KRAS G12D) cell-line; experiment: Cell based pERK assay (HTRF), ASPC-1; conditions: read-out: AsPC1 pERK EC50; ASPC-1 (KRAS G12D) cells, 2 hours incubation; tested form: TFA
[3] = system: cellular pERK in Kuramochi (WT KRAS) cell-line; experiment: Cell based pERK assay (HTRF), Kuramochi; conditions: read-out: Kuramochi pERK EC50; Kuramochi (WT KRAS) cells, 2 hours incubation; tested form: TFA
[4] = system: cellular pERK in MIA-PaCa-2 (KRAS-G12C) cell-line; experiment: Cell based pERK assay (HTRF), MIA-PaCa-2; conditions: read-out: MIAPaCa2 pERK EC50; MIA-PaCa-2 (KRAS-G12C) cells, 2 hours incubation; tested form: TFA

Row | SMILES | EC50 [1] [nM] | EC50 [2] [nM] | EC50 [3] [nM] | EC50 [4] [nM]
1 | C#Cc1c(F)ccc2cc(O)cc(-c3nc4c5c(nc(OC[C@@]67CCCN6C[C@H](F)C7)nc5c3F)N3CCOCCC3CCC4)c12 (stereo partly drawn) | > 1000 | > 1000 |  | 
2 | C#Cc1c(F)ccc2cc(O)cc(-c3nc4c5c(nc(OC[C@@]67CCCN6C[C@H](F)C7)nc5c3F)N3CCCOCC3CCC4)c12 (stereo partly drawn) | 62.5 | 112 | 21.5 | 31.2

— patent publication US20240383922A1, “KRAS Modulating Compounds” (Gilead Sciences, Inc., priority 2023, published 2024)
